E-sel inducer: E-selectin induction on HUVECs | P16581 | HUVEC E-selectin immunofluorescence imaging; normalized: neutral wells 0, TNF-alpha wells 100 | activation, % at 7.58 µM | actives 0.37% (n = 260,000);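 active means mean E-selectin-positive cell signal at least 10% of the positive control, reached in at least 60% of replicates, without over 20% cell loss; inconclusive means no rule given, readout overlaps actives, possibly toxicity-flagged; inactive means the rest, including those meeting only one limit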
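Assay system: HUVEC primary endothelial cells. Input: 3,000 HUVEC seeded per well. Doses: one compound dose added by pin transfer. Read-out basis: % PE-positive cells. Benchmarks: TNF-alpha high, DMSO low. Detection: immunofluorescence imaging. Buffer or medium: EGM-2, gelatin.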
UUG fidelity: yeast start codon fidelity modulation; AID 602363; activity score, % at 18.7 µM; S. cerevisiae UUG-firefly luciferase reporter, luminescence/redox ratio; 0.13% of 350,000 active;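 active means replicate mean at a twofold rise or more, about +100% in these data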;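 further: firefly luciferase made from a UUG start codon reports start codon fidelity; reporter light over untreated wells divided by growth signal over untreated wells; some hits fall short of that in this replicate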
RAD52 inh: blocks human RAD52 DNA annealing | P43351 | inhibition, % at 18.7 µM | AID 651710 | actives 0.46% (n = 360,000) | recombinant RAD52 DNA annealing, FRET fluorescence;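 active means every replicate showing at least 50% inhibition; inconclusive means mean inhibition at least 50% but not in every replicate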
SIRT5 block: inhibitors of human sirtuin-5 desuccinylase | inhibition, % at 15 µM | Q9NXA8 | AID 652115 | Purified SirT5, succinyl-peptide AMC, trypsin-coupled fluorescence | actives 1.1% (n = 330,000); in the data active means inhibition above about 15%; inconclusive means no clear call, values can overlap the other calls
RAD54 inh: inhibitors of human RAD54 branch migration; AID 602329; actives 0.14% (n = 360,000); inhibition, % at 10.4 µM; RAD54 Holliday junction branch migration, FAM/BHQ fluorescence;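 active means mean normalized replicate activity at least 40 and at least half of replicates scoring 40 or more; inconclusive means only one of the two criteria met; inactive means mean below 40 and under half of replicates reaching 40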;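 further: 0% = median of neutral control wells and 100% = median of positive control wells; inhibitors cause a drop in the FAM fluorescence signal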
MLL AF4-AF9 inh: blocks AF4 peptide binding to human AF9; P42568; AlphaScreen, biotin-AF4 peptide binding to FLAG-AF9; inhibition, % at 10 µM; actives 0.47% (n = 350,000);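 active means every replicate reaching a set inhibition limit, whatever the replicate mean, cut at about 25% in these data; inconclusive means mean inhibition reaches that limit but some replicates miss it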;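 further: 0% = plate neutral control median and 100% = total signal loss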
DNA binder FP: binds DNA, flagging false RAD52 inhibitor hits; actives 8% (n = 1,000); Salmon sperm DNA/acridine orange FP displacement, DNA binding; AID 652128; shares compounds with RAD52 inh; AC50, µM;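 active means fitted half-maximal concentration for signal loss at or below twice the highest dose tested, in every separate run, actives reach about 64 µM in these data; inconclusive means runs disagree, or flat partial signal loss, or poor fit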
Active calls of the source: *; i = inactive; ? = inconclusive; / = no result; ! = not active in a repeat. This is a sample that favours compounds with a hit; in the whole collection about 1.8% have one here.

entry | SMILES | E-sel inducer | UUG fidelity | DNA binder FP | RAD52 inh
1 | COC(=O)C1=CO[C@@H](O[C@@H]2O[C@H](CO)[C@@H](O)[C@H](O)[C@H]2O)C2C(CO)=CCC12 (stereo partly specified) | 0 | 8 | / | -8
2 | O=c1cc(O)c2c(=O)n(-c3ccccc3)c3c(c2o1)CCCCC3 | / | -13 | / | /
3 | CC/C(=N\O)c1c(O)c2c(n(-c3ccccc3)c1=O)CCCC2 | / | / | i | 54*
4 | CC(Sc1nnc(NC(=O)c2cc3ccccc3oc2=O)s1)c1ccccc1 (stereo unspecified) | 0 | -12 | i | 53*
5 | CC1CCCCN1CC(=O)Nc1ccc(Oc2ccccc2)cc1 (stereo unspecified) | / | 0 | / | /
6 | CC1CCCCN1CC(=O)Nc1ccc(N2CCCCCC2)cc1 (stereo unspecified) | / | / | i | 93*
7 | COc1ccc(S(=O)(=O)Nc2cccc3c2O[C@H](CN(C)Cc2ccc(C(=O)O)cc2)[C@H](C)CN([C@H](C)CO)C3=O)cc1 | -17 | -7 | / | /
8 | CCN(CC)CCCNC(=O)c1cc(Nc2ccc(OC)cc2OC)nc2ccccc12 | 0 | -8 | i | 8
9 | CCCCNC(=S)Nc1ccc2nc(N3CCN(CC)CC3)cc(C)c2c1 | 0 | -18 | i | 57*
10 | Cc1cc(N2CCCC2)nc2ccc(NC(=S)NCCCN3CCC(C)CC3)cc12 | / | / | i | 76*
11 | CCN1CCN(c2cc(C)c3cc(NC(=O)c4cccs4)ccc3n2)CC1 | 0 | -27 | i | 63*
12 | CCN1CCN(c2cc(C)c3cc(NC(=O)c4cncc(Br)c4)ccc3n2)CC1 | / | 3 | / | /

entry | RAD54 inh | MLL AF4-AF9 inh | SIRT5 block
1 | 2 | -2 | /
2 | -11 | / | /
3 | / | -24 | -3
4 | 7 | 0 | /
5 | -8 | / | /
6 | / | 49* | -1
7 | / | / | /
8 | -1 | 22 | -5
9 | 30 | 18 | -1
10 | / | 14 | -8
11 | 30 | ? | 6
12 | 35 | / | /

Carrying on.
entry | SMILES | E-sel inducer | UUG fidelity | DNA binder FP | RAD52 inh
13 | COc1cccc(NC(=O)N[C@H]2CC[C@H](CC(=O)Nc3ccc(-c4ccccc4)cc3)O[C@H]2CO)c1 | 2 | -27 | / | -10
14 | CNC[C@H]1Oc2ccc(NC(=O)Nc3ccc(C(F)(F)F)cc3)cc2CC(=O)N([C@H](C)CO)C[C@@H]1C | 0 | 2 | / | 7
15 | Nc1ccn([C@@H]2O[C@H](CNCc3cccc4c3sc3ccccc34)[C@@H](O)[C@H]2O)c(=O)n1 | / | -4 | i | 54*
16 | Nc1nc(N)c2cc(Sc3ccc(Cl)cc3)ccc2n1 | 0 | -22 | i | 85*
17 | Nc1nc(N)c2cc(Sc3ccc4ccccc4c3)ccc2n1 | -1 | -18 | / | -3
18 | CN1CCN(CC(O)COc2ccc(C34CC5CC(CC(C5)C3)C4)cc2)CC1 (stereo unspecified) | 11 | -7 | i | 56*
19 | CN1CCN(CC(O)COc2ccccc2)CC1 (stereo unspecified) | 0 | -11 | / | -8
20 | Cc1ccc(S(=O)(=O)N2C[C@H](O)COC[C@H]3O[C@@H](CC(=O)N4CCc5ccccc5C4)CC[C@@H]32)cc1 | 0 | 18 | / | -5
21 | Cn1c(SCC(=O)N2c3ccccc3Sc3ccccc32)nc2ccccc21 | -3 | / | / | -1
22 | CN(C)CCCn1c(SCC(=O)N2c3ccccc3Sc3ccccc32)nc2ccccc2c1=O | 2 | -8 | i | 69*
23 | Cc1ccc(-c2csc(NC(=O)CSc3nc4ccccc4c(=O)n3CCCN(C)C)n2)cc1 | / | / | i | 91*
24 | c1ccc(-c2cc(NCCN3CCCCC3)c3ccccc3n2)cc1 | 0 | -20 | i | 89*

entry | RAD54 inh | MLL AF4-AF9 inh | SIRT5 block
13 | 2 | -1 | 0
14 | 7 | 6 | -10
15 | 22 | -2 | -1
16 | 14 | 1 | -15
17 | 9 | 0 | -2
18 | 26 | 23 | -6
19 | -3 | 0 | -1
20 | 3 | 2 | 8
21 | / | 10 | 0
22 | 6 | ? | 0
23 | / | 36* | /
24 | 106* | 8 | -2

Quoted from above: entries 21–24
entry | SMILES | E-sel inducer | UUG fidelity | DNA binder FP | RAD52 inh
21 | Cn1c(SCC(=O)N2c3ccccc3Sc3ccccc32)nc2ccccc21 | -3 | / | / | -1
22 | CN(C)CCCn1c(SCC(=O)N2c3ccccc3Sc3ccccc32)nc2ccccc2c1=O | 2 | -8 | i | 69*
23 | Cc1ccc(-c2csc(NC(=O)CSc3nc4ccccc4c(=O)n3CCCN(C)C)n2)cc1 | / | / | i | 91*
24 | c1ccc(-c2cc(NCCN3CCCCC3)c3ccccc3n2)cc1 | 0 | -20 | i | 89*

entry | RAD54 inh | MLL AF4-AF9 inh | SIRT5 block
21 | / | 10 | 0
22 | 6 | ? | 0
23 | / | 36* | /
24 | 106* | 8 | -2

Going on with the list.
entry | SMILES | E-sel inducer | UUG fidelity | DNA binder FP | RAD52 inh
25 | CCCCCCCCCCCC1N=C(N)NC(CCCO)=C1C(=O)OC (stereo unspecified) | 0 | / | ? | 88*
26 | CCCCCCOC(=O)c1ccc(N)cc1 | / | 10 | / | -32
27 | CC(C)CC#Cc1cnc2c(c1)C(=O)N([C@H](C)CO)C[C@@H](C)[C@H](CN(C)S(=O)(=O)c1cn(C)cn1)O2 | 0 | -4 | / | -13
28 | Cc1ccc2nc(-c3ccc(CN4CCC(c5nc6ccccc6[nH]5)CC4)cc3)c(-c3ccccc3)nc2c1 | 1 | / | / | -34
29 | Cc1cccc2nc(-c3ccccc3)c(-c3ccc(CN4CCC(c5nc6ccccc6[nH]5)CC4)cc3)nc12 | 1 | / | i | 60*
30 | c1ccc(-c2nc3ccccc3nc2-c2ccc(CN3CCC(c4nc5ccccc5[nH]4)CC3)cc2)cc1 | 1 | / | / | -13
31 | Cc1cccc2nc(-c3ccccc3)c(-c3ccc(CN4CCC(n5cc(-c6ccccc6)[nH]c5=O)CC4)cc3)nc12 | 0 | / | i | 62*
32 | COCC(=O)N(C)C[C@H]1Oc2cc(C#CC3CCCC3)ccc2S(=O)(=O)N([C@@H](C)CO)C[C@@H]1C | 0 | / | / | /
33 | c1cncc(-c2nc(NCCCN3CCOCC3)c3c4c(sc3n2)CCC4)c1 | 8 | / | i | 62*
34 | OC(CN1CCNCC1)Cn1c2ccccc2c2ccccc21 (stereo unspecified) | / | -8 | i | 79*
35 | OC(CN1CCOCC1)Cn1c2ccccc2c2ccccc21 (stereo unspecified) | -2 | -2 | / | -1
36 | CCN1CCN(Cc2ccc(NC(=O)c3ccc(C)c(NC(=O)c4cccc5[nH]ccc45)c3)cc2C(F)(F)F)CC1 | 0 | -17 | i | 89*!

entry | RAD54 inh | MLL AF4-AF9 inh | SIRT5 block
25 | / | 8 | -1
26 | 1 | 4 | -3
27 | -1 | 0 | -7
28 | / | / | 9
29 | / | / | 1
30 | / | / | -1
31 | / | / | 1
32 | / | / | /
33 | / | 4 | 2
34 | 19 | 5 | -3
35 | 9 | 2 | -1
36 | 7 | 13 | -11

(next part)
entry | SMILES | E-sel inducer | UUG fidelity | DNA binder FP | RAD52 inh
37 | CCN1CCN(Cc2ccc(NC(=O)c3ccc(C)c(NC(=O)c4nccnc4N)c3)cc2C(F)(F)F)CC1 | 1 | 1 | i | 67*
38 | C[C@H](CO)N1C[C@H](C)[C@H](CN(C)Cc2ccc(Cl)c(Cl)c2)Oc2c(NS(C)(=O)=O)cccc2C1=O | -13 | / | / | 1
39 | CC1(C)N=C(N)N=C(N)N1c1ccccc1 | / | -9 | / | /
40 | CC1(C)N=C(N)N=C(N)N1c1ccc(CCCCc2ccccc2)cc1 | 0 | -12 | i | 85*
41 | NC(=O)CC(NC(=O)Cc1cccc2ccccc12)c1ccc(N2CCC(N3CCCC3)CC2)c([N+](=O)[O-])c1 (stereo unspecified) | 0 | 8 | / | 13
42 | CN1CCN(c2ccc(C(CC(N)=O)NC(=O)Cc3cccc4ccccc34)cc2[N+](=O)[O-])CC1 (stereo unspecified) | 0 | -12 | ? | 56*
43 | O=C(C[C@@H]1C[C@@H]2c3cc(NC(=O)Cc4ccncc4)ccc3O[C@@H]2[C@@H](CO)O1)NCc1ccccn1 | 0 | / | / | /

entry | RAD54 inh | MLL AF4-AF9 inh | SIRT5 block
37 | 11 | 17 | /
38 | 4 | -1 | -8
39 | -7 | / | /
40 | 29 | 15 | 4
41 | 0 | / | /
42 | 0 | -1 | /
43 | / | / | /

Screening data from PubChem BioAssay.
